Literature values as cited in patent publication US20210268122A1, “INHIBITION OF S[…] PROTEIN INHIBITORS OF CYSTEINE PROTEASES” (DYVE BIOSCIENCES, INC., priority 2017, published 2021).

Test system: cysteine cathepsin
Settings: intra-peritoneal; mammary and lungs; cited from earlier work

Substance: JPM-OEt
- bioavailability: poor
